# Measured values taken from ChEMBL document CHEMBL5346872, “Design, synthesis and biological evaluation of quercetin derivatives as novel β-catenin/B-cell lymphoma 9 protein-protein interaction inhibitors” (Eur J Med Chem, 2023).
# Protein sequences, listed by entry. Tags and fused reporters are not part of them.
# UniProt P35222, whole entry: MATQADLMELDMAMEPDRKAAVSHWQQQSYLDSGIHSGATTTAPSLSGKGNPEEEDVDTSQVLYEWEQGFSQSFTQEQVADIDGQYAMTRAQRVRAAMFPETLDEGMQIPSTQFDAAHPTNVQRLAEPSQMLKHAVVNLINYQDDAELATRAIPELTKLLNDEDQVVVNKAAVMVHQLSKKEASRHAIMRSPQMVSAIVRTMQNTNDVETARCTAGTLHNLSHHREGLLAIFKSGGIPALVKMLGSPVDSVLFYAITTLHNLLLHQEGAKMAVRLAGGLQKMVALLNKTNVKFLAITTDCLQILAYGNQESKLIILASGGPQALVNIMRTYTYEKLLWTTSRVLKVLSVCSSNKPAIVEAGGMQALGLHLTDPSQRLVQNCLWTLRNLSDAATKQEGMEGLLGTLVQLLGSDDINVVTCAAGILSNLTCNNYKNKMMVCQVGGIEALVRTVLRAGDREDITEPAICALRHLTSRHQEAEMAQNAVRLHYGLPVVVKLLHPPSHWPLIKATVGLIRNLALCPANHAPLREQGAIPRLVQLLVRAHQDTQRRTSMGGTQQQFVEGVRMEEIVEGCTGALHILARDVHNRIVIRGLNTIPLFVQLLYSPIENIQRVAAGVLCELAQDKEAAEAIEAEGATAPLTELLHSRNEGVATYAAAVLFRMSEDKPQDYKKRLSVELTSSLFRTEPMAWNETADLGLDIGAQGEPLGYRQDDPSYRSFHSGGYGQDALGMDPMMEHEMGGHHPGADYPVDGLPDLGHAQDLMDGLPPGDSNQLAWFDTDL
# Columns and labels:
# [1] = target: T1, beta-catenin-B-cell lymphoma 9 protein complex (Homo sapiens, UniProt P35222)
# [2] = target: T1, beta-catenin-B-cell lymphoma 9 protein complex; test: Inhibition of beta-catenin (unknown origin) to BCL9-FAM (unknown origin) protein-protein interaction preincubated for 2 hrs followed by BCL9 addition and measured after 2 hrs by fluorescence polarization assay; assay type: protein-complex assay
smiles,measurement,setting,value
O=c1c(O)c(-c2ccc(O)c(O)c2)oc2cc(O)cc(O)c12 [QUERCETIN],IC50,[1],10.1 µM
same,IC50,[2],10.1 µM
